The chains behind the UniProt entries cited, without tags or fusion partners.
UniProt Q9NUW8, whole entry: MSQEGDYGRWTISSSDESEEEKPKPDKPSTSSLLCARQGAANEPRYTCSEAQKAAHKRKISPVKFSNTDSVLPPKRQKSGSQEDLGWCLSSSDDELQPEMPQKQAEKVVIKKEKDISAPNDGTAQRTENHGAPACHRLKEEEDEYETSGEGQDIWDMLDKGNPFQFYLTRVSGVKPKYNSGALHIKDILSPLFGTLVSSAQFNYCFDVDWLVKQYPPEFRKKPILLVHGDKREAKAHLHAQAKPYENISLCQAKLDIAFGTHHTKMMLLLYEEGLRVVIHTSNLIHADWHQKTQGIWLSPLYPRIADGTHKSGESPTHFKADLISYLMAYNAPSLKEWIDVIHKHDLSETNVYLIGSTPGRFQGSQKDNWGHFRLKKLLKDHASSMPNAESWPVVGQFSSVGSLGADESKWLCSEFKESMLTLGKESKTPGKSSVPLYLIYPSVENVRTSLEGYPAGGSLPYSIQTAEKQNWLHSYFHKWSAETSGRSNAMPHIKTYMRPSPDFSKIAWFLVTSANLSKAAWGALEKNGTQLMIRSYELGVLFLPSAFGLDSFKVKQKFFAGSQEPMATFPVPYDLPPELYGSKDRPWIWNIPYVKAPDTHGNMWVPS

According to publication PMC12280126, “Potent β-lactam-based tyrosyl-DNA phosphodiesterase 1 inhibitors identified by a virtual screen” (Scientific Reports, 2025):

Molecular target: T1, recombinant TDP1 (Homo sapiens, UniProt Q9NUW8)
T1 construct: incubated with 40 pM full-length recombinant TDP1 or TDP1 (148–608)
Experiment: in vitro gel-based fluorescence TDP1 catalytic assay
Assay type: biochemical
Procedure: We subjected select virtual screen hits to evaluation of TDP1 inhibitory potencies using in vitro gel-based fluorescence TDP1 catalytic assays (Fig. 2). […] To further explore this class of compounds, we purchased from TargetMol a library of approximately 90 β-lactams as 10 mM solutions in DMSO. […] We examined TDP1 inhibitory potencies of the compounds using the in vitro gel-based fluorescence assays as previously described[21]–[24]. Briefly, a 5’-Cy5-labeled DNA substrate (N14Y, 5’-Cy5-[…]-pY-3’, 1 nM) was incubated in TDP1 reaction buffer with recombinant TDP1 or truncated TDP1(148–608) (40 pM) in the absence or presence of inhibitors for 15 min at room temperature. […] The TDP1 inhibition IC50 values were calculated based on gel images of the cleavage product (N14P, 5’-Cy5-[…]-p-3’) (Fig. 3A and Table S2).
The inhibition of TDP1 and TDP2 were conducted according to gel-based methods as previously described[21]–[24],[45]. […] The IC50 values of the TDP1 inhibitors were calculated by comparing the percentage of the cleavage product (N14P, 5´Cy5-[…]-p-3´) produced to that in the DMSO control. The IC50 values of the TDP2 inhibitors were calculated by comparing the percentage of the cleavage product (PN18, 5’-p-[…]-Cy5-3’) produced to that in the DMSO control.

C[C@@H](O)[C@H]1C(=O)N2C(C(=O)OCOC(=O)C(C)(C)C)=C(SC3CN(C4=NCCS4)C3)[C@H](C)[C@H]12 [LC3, Tebipenem Pivoxil] was tested, and the IC50 was > 1000 µM.
